Legend:
Progesterone receptor [1] = biological target: T1, Progesterone receptor (Homo sapiens, UniProt P06401); assay: Inhibitory concentration for antagonistic activity towards human progesterone receptor (hPR) using the cotransfection assay in CV-1 cells; Not active; format: functional, cell-based
T1 sequence (P06401 whole entry): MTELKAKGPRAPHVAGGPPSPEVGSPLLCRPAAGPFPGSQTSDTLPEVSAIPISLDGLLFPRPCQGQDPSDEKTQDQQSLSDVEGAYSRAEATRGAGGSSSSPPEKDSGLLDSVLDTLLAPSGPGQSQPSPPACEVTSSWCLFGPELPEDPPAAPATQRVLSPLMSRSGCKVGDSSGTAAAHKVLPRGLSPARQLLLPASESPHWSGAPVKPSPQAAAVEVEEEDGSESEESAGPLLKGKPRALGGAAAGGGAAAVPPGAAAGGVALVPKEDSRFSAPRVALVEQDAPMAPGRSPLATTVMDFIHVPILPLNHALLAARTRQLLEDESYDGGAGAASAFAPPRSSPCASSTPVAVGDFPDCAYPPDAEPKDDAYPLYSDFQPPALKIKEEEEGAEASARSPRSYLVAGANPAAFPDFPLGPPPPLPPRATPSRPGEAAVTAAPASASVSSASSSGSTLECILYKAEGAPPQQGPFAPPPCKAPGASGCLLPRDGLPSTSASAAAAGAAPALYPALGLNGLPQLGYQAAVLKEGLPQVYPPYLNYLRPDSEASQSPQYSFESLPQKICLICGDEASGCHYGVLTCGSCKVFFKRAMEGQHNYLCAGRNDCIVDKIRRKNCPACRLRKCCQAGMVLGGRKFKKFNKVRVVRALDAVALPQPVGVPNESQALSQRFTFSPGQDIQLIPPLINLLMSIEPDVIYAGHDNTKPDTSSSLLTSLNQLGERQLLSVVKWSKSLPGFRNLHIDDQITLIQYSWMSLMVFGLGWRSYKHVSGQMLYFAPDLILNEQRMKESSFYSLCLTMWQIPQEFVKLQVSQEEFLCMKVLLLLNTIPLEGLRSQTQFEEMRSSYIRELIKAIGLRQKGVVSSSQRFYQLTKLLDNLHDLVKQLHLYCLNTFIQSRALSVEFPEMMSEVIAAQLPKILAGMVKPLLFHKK

Progesterone receptor [2] = biological target: T1, Progesterone receptor; assay: Effective concentration for agonist activity towards human progesterone receptor (hPR) expressed in CV-1 cells; Not active; format: functional, cell-based

SMILES	IC50 (Progesterone receptor [1])	EC50 (Progesterone receptor [2])
CC(=O)[C@H]1CC[C@H]2[C@@H]3CCC4=CC(=O)CC[C@]4(C)[C@H]3CC[C@]12C [PROGESTERONE]	Not Active	–
CC#C[C@]1(O)CC[C@H]2[C@@H]3CCC4=CC(=O)CCC4=C3[C@@H](c3ccc(N(C)C)cc3)C[C@@]21C [MIFEPRISTONE]	–	Not Active

From ChEMBL document CHEMBL1136068 (Bioorg Med Chem Lett, 2003)
